This experiment deals with calcium absorption at the intestinal tube. Description: Effect to promote calcium absorption from the intestinal tract (everted gut sac method). The format is in vivo, Wistar male rats. The note with it: vitamin D-deficient rats, 250 ng/head intravenously, measured 4, 8, 24 and 48 hour later. How it is done: They were killed 4 hour, 8 hour, 24 hour and 48 hour later, and calcium absorption at the intestinal tube was measured by the everted gut sac method [see Martin, D. L. and Deluca, H. F., Amer, J. Physiol.

For `C=C1/C(=C\C=C2/CCC[C@]3(C)[C@@H]([C@H](C)CCCC(C)(C)O)CC[C@@H]23)C[C@@H](O)C[C@@H]1O` [1α,25-dihydroxy cholecalciferol, reference compound], the “time of maximum effect on intestinal calcium absorption after administration” value was “about 8 hours”.
